We go through one substance from patent US20180055857A1, “TREATMENT OF ACNE VULGARIS WITH SEQUENTIAL TOPICAL FORMULATIONS COMPRISING ANTIMICROBIAL ORGANIC ACID ANIONS IN ALKALINE PHASE” (KANTIAN SCIENCES CORPORATION, priority 2015, published 2018).

Like-named read-outs stand apart in the source and are kept apart here.

Turning to Chlorite, the “% ClO2^−” value reads like this: (pH 2.3) 68.0%; (pH 2.6) 81.9%; (pH 2.8) 87.7%; (pH 3.0) 91.5%; (pH 3.5) 97.6%. In addition, the “% HClO2” value reads like this: (pH 2.3) 35.0%; (pH 2.6) 18.1%; (pH 2.8) 12.3%; (pH 3.0) 8.5%; (pH 3.5) 2.4%.
